Experimental data reported in patent US10112939B2, “Tied-back benzamide derivatives as potent rock inhibitors” (Bristol-Myers Squibb Company, priority 2014, dated 2018).

Protein sequences, listed by entry. Tags and fused reporters are not part of them.
UniProt O75116, whole entry, species assumed: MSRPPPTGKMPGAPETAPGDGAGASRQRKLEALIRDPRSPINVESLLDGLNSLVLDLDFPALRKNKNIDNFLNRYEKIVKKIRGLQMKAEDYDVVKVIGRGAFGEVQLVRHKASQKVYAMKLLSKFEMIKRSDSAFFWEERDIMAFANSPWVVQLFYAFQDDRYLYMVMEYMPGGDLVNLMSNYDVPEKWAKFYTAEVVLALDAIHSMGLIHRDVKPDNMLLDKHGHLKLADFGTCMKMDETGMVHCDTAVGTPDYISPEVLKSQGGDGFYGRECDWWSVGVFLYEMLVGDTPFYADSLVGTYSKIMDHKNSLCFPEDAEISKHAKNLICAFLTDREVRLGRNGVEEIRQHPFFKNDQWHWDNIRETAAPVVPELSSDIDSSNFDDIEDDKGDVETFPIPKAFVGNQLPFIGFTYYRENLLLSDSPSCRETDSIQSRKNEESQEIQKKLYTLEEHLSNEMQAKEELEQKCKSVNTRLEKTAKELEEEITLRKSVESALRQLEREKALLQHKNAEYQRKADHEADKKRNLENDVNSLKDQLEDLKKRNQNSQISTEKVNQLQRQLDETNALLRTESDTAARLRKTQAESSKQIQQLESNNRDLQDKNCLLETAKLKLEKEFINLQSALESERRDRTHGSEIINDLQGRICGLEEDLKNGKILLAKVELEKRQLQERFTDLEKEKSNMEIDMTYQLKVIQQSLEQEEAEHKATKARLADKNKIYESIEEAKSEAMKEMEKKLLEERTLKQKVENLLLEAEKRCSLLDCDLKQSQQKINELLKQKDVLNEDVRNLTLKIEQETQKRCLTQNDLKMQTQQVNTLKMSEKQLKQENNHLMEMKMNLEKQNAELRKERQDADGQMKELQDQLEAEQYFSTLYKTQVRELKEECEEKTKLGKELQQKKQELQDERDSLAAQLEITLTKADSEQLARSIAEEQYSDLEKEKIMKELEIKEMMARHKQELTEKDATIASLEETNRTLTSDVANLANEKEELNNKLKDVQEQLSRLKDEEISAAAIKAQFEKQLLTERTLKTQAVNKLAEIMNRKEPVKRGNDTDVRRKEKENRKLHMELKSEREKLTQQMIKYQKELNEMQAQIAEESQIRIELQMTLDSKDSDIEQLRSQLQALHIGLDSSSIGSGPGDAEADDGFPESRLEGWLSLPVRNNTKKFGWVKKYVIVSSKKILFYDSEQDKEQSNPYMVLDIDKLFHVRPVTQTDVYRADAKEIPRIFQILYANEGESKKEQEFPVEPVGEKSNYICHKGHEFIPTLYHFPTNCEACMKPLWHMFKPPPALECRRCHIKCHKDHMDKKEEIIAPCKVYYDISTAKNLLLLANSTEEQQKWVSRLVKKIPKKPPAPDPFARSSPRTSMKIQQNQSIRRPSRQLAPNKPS

Target: ROCK2 (Homo sapiens (Human), UniProt O75116)
Assay: ROCK assay (peptide substrate phosphorylation, LABCHIP 3000 Reader)
Type: biochemical
Experimental: Compounds were dissolved in DMSO so that the final concentration of DMSO was <2%, and the reaction was initiated with Rho kinase variants. After incubation, the reaction was terminated by the addition of EDTA and the phosphorylated and non-phosphorylated peptides separated using a LABCHIP® 3000 Reader (Caliper Life Sciences). […] Compounds were tested in dose-response format, and the inhibition of kinase activity was calculated at each concentration of compound.

[1] = 5 μM ATP, 1.5 μM peptide substrate

Row | SMILES | IC50 [1] [nM] | IC50 [nM]
1 | COc1cc(C(=O)N2CCCC2c2cccc(C(=O)NC3CCN(C)CC3)c2)ccc1-c1cn[nH]c1 (stereo not drawn) [Example 37, 3-{1-[3-methoxy-4-(1H-pyrazol-4-yl)benzoyl]pyrrolidin-2-yl}-N-(1-methylpiperidin-4-yl)benzamide] | 751 | –
2 | COc1cc(C(=O)N2CCCC2c2cccc(C(=O)NC3CCN(C)CC3)c2)ccc1-c1cn[nH]c1 (stereo not drawn) [Example 38, 3-{1-[3-methoxy-4-(1H-pyrazol-4-yl)benzoyl]pyrrolidin-2-yl}-N-(1-methylpiperidin-4-yl)benzamide] | 2.13 | –
3 | COc1cc(C(=O)N2CC(O)C[C@@H]2c2cccc(C(=O)NC3(C)CCC3)c2)ccc1-c1cn[nH]c1 (stereo partly drawn) [Example 53, 3-[(2R)-4-hydroxy-1-[3-methoxy-4-(1H-pyrazol-4-yl)benzoyl]pyrrolidin-2-yl]-N-(1-methylcyclobutyl) benzamide] | – | 102

Where two headings read alike, the source gives them in different places.
